Active and inactive are the calls of the source. No cut-off for these calls is given here.
Key:
[1] = tested on: Mitochondrial membrane; assay: Induction of mitochondrial membrane potential loss in human MCF7 cells assessed as increase in JC-1 cytoplasmic monomers incubated for 48 hrs by JC-1 staining based flow cytometric analysis; format: cell membranes; settings: dose 2.5-10 µM
[2] = tested on: MCF7; assay: Induction of cell cycle arrest in human MCF7 cells assessed as increase in S phase cells at 5 uM preincubated with U0126 for 1 hrs followed by compound addition and measured after 48 hrs by PI staining based flow cytometric analysis; format: functional
[3] = tested on: MCF7; assay: Effect on total ERK level in human MCF7 cells at 2.5 to 10 uM incubated for 24 hrs by Alphascreen assay; format: functional, cell-based; settings: dose 2.5-10 µM
[4] = tested on: MCF7; assay: Induction of cell cycle arrest in human MCF7 cells assessed as increase in G2/M phase cells at […] incubated for 72 hrs by PI staining based flow cytometric analysis; format: functional; settings: dose 2.5 µM
[5] = tested on: MCF7; assay: Induction of ERK phosphorylation at Thr202/Tyr204 residue in human MCF7 cells at 10 uM preincubated with U0126 for 1 hrs followed by compound addition and incubated for 24 hrs by Alphascreen assay; format: cell-based
[6] = tested on: MCF7; assay: Induction of apoptosis in human MCF7 cells assessed as increase in caspase activity preincubated for 48 hrs followed by carboxyfluorescein-labeled fluoro-methyl ketone peptide addition and measured after 1 hrs by fluorescence based analysis; format: functional, cell-based; settings: dose 2.5-10 µM
[7] = tested on: Mitochondrial membrane; assay: Induction of mitochondrial membrane potential loss in human MCF7 cells assessed as decrease in JC-1 aggregates incubated for 48 hrs by JC-1 staining based flow cytometric analysis; format: cell membranes; settings: dose 2.5-10 µM
[8] = tested on: MCF7; assay: Induction of cell cycle arrest in human MCF7 cells assessed as increase in sub-G1 phase cells at 10 uM incubated for 48 hrs by PI staining based flow cytometric analysis; format: functional
[9] = tested on: MCF7; assay: Induction of cell cycle arrest in human MCF7 cells assessed as increase in S phase cells at 5 uM incubated for 72 hrs by PI staining based flow cytometric analysis; format: functional
[10] = tested on: Mitochondrial membrane; assay: Induction of mitochondrial membrane potential loss in human MCF7 cells at 10 uM incubated for 48 hrs by JC-1 staining based flow cytometric analysis relative to control; format: cell membranes
[11] = tested on: MCF7; assay: Induction of cell cycle arrest in human MCF7 cells assessed as increase in sub-G1 phase cells at 10 uM incubated for 72 hrs by PI staining based flow cytometric analysis; format: functional
[12] = tested on: MCF7; assay: Induction of cell cycle arrest in human MCF7 cells assessed as increase in G2/M phase cells at […] incubated for 48 hrs by PI staining based flow cytometric analysis; format: functional; settings: dose 2.5 µM
[13] = tested on: MCF7; assay: Induction of apoptosis in human MCF7 cells assessed as increase in late apoptotic cells incubated for 72 hrs by Annexin V-PE/7-AAD staining based flow cytometric analysis; format: functional, cell-based; settings: dose 2.5-10 µM
[14] = tested on: MCF7; assay: Induction of apoptosis in human MCF7 cells assessed as increase in early apoptotic cells incubated for 72 hrs by Annexin V-PE/7-AAD staining based flow cytometric analysis; format: functional, cell-based; settings: dose 2.5-10 µM
[15] = tested on: MCF7; assay: Induction of ERK phosphorylation at Thr202/Tyr204 residue in human MCF7 cells incubated for 24 hrs by Alphascreen assay; format: cell-based; settings: filed as activator, dose 2.5-10 µM
[16] = tested on: MCF7; assay: Induction of cell cycle arrest in human MCF7 cells assessed as increase in S phase cells at 5 uM incubated for 48 hrs by PI staining based flow cytometric analysis; format: functional

Row | Activity [1] | Activity [7] | Activity [10] | Compound | Activity [2] | Activity [3] | Activity [4] | Activity [5] | Activity [6] | Activity [8] | Activity [9] | Activity [11] | Activity [12] | Activity [13] | Activity [14] | Activity [15] | Activity [16]
1 | Dose-dependent-effect | Dose-dependent-effect | 40% | NS(=O)(=O)c1cc(C(=O)N/N=C/c2ccc(Br)cc2O)c(SCc2ccccc2)cc1Cl | inactive | inactive | Active; Lower Increase Observed | inactive | Dose-dependent-effect | Active; Indication Of Possible Transition To Apoptosis | Active; Lower Increase Observed | Active; Higher Increase Observed | Active | Dose-dependent-effect | Dose-dependent-effect | Dose-dependent-effect | Active
2 | Dose-dependent-effect | Dose-dependent-effect | 30% | NS(=O)(=O)c1cc(C(=O)N/N=C/c2ccc(Br)cc2O)c(SCc2ccc(F)cc2)cc1Cl | inactive | inactive | Active; Lower Increase Observed | inactive | Dose-dependent-effect | Active; Indication Of Possible Transition To Apoptosis | Active; Lower Increase Observed | Active; Higher Increase Observed | Active | Dose-dependent-effect | Dose-dependent-effect | Dose-dependent-effect | Active
